Usually IC50 stands for the concentration that gives 50% inhibition. Lower therefore signals greater potency in that assay.

Protein sequences, listed by entry. Tags and fused reporters are not part of them. Residues count along the entry.
UniProt G1SFD9, 1-524: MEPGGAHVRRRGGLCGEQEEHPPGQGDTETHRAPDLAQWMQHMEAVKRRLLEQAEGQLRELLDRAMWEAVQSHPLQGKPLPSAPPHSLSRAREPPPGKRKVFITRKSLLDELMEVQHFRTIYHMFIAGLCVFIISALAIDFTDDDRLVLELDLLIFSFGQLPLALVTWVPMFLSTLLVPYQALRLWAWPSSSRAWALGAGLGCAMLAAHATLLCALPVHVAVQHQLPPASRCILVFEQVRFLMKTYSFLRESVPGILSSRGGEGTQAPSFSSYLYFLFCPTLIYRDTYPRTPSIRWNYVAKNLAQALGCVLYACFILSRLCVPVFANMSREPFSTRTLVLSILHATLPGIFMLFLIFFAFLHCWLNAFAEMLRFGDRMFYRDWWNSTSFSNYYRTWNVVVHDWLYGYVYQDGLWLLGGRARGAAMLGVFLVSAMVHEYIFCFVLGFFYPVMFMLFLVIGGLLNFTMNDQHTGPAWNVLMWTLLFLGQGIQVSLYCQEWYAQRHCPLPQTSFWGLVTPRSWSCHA

The experiment addresses O-acyltransferase (Oryctolagus cuniculus, UniProt G1SFD9). The experiment is described as follows: Inhibitory activity against Acyl coenzyme A:cholesterol acyltransferase 1 obtained from rabbit intestine microsomes. In outline:
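Enzyme source was small-intestinal mucosa microsomes from cholesterol-fed rabbits. The substrate was [1-¹⁴C]oleoyl-CoA.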
Consider `CCCCCCCCCCC1(C(=O)Nc2c(C)c(Cl)c(C)c3c2OC(C)(C)C3)CCCC1`, for which the IC50 was 290 nM.

`CCCCCCCCCCCCCCCC(=O)Nc1c(C)ccc2c1OC(C)(C)C2` came in with an IC50 of 24 nM.

Molecule `Cc1cc(C)c(NC(=O)C(C)(C)CCCCCCOCC(C)C)c2c1CC(C)(C)O2` came in with an IC50 of 59 nM.

As for `CCCCCCCCCCC(C)(C)C(=O)Nc1c(C)cc(C)c2c1OC(C)(C)C2`, the midpoint of inhibition, the IC50, lay at 42 nM.

For `Cc1cc(C)c(NC(=O)C(C)(C)CCCCOCc2ccccc2)c2c1CC(C)(C)O2`, it took 400 nM to reach half-maximal inhibition (IC50).

(Values after ChEMBL document CHEMBL1129524, “Potent inhibitors of acyl-CoA:cholesterol acyltransferase. 2. Structure-activity relationships of novel N-(2,2-dimethyl-2,3-dihydrobenzofuran-7-yl)amides” (J Med Chem, 1996).)
